AlphaSeq binding of Ab-91 heavy chain variants to a spike HR2 peptide

Binding partner: SARS-CoV-2 spike HR2 peptide, sequence PDVDLGDISGINAS.

Ab-91 is the parent antibody, in scFv form: VL, then the linker GGGGSGGGGSGGGGS, then VH. The light chain is unchanged in all variants.
VL: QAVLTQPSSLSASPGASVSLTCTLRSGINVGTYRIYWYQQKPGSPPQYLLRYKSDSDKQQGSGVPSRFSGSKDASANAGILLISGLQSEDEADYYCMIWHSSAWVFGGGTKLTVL
VH: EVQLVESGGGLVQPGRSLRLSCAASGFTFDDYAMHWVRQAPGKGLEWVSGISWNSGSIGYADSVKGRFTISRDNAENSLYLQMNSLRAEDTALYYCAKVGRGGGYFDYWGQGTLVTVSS

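Phage display of a naive human antibody library on the peptide gave the parent. Variants in AAYL51 differ from the parent at up to three CDR positions; double and triple changes were sampled at random. In AlphaSeq, yeast of one mating type display the scFv and yeast of the other type display the target. Pairs that bind mate more often; barcode pairs of the diploids are counted by sequencing. The ratio of observed to expected reads was calibrated, replicate by replicate, on BCL2-family standards whose Kd was known from biolayer interferometry. The assay was run in three technical replicates.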

Variants are written as CDR1, CDR2 and CDR3 of the heavy chain (limits as in the source). Parent: GFTFDDYAMH, GISWNSGSIGYADSVK, VGRGGGYFDY. All variants listed here change F27 of the VH, counted from its first residue. Affinities are written as log10 Kd with Kd in nM; a lower number is a better binder. Averages over replicates are reported, and they cover detected replicates only. Where no diploid with the target was found in any replicate, the entry reads "no signal": below detection, most likely a poor binder, though not proof of it. Nonspecific signal, from three strains lacking the peptide, appeared in 21% of pairings of library AAYL51, centred on 4.54 (5% of these signals below 3.26); values are not corrected for it. The control count says in how many pairings with the empty strains this scFv gave a signal.

The variant GKHFDDYAMK | GISWNSGSIGYADSVK | VGRGGGYFDY showed 0.81 (3 of 3 replicates; controls 0 of 9).
The variant GPTFDDYAMH | GISWNSGSIGYADSRK | FGRGGGYFDY showed 4.57 (2 of 3 replicates; controls 6 of 9).
The variant GPTFDDYAPH | GISWNSGSTGYADSVK | VGRGGGYFDY showed 4.27 (2 of 3 replicates; controls 2 of 9).
The variant GVTFDDTAMH | GISWNSGSIGYADSVK | VGRGGGQFDY showed 3.81 (3 of 3 replicates; controls 4 of 9).
The variant GTTFDDYAMH | GISWNSGSIGYAYSVK | FGRGGGYFDY showed 5.33 (2 of 3 replicates; controls 5 of 9).
The variant GWFFDDYAMH | GISWNSGSIGYADSVK | VGRGGGYFDL showed 3.95 (3 of 3 replicates; controls 2 of 9).
The variant GGTFDDYAMH | GISWNSGSIGYADSPK | VGRGGWYFDY showed no signal (0 of 3 replicates; controls 1 of 9).
The variant GCTFDDYAMH | GLSWNSGSIGYADSVK | VGRGGGYFDY showed 3.25 (1 of 3 replicates; controls 1 of 9).
The variant GLTFDDYAMH | GISWNSGSIGYADSVK | VGRGIPYFDY showed 5.22 (1 of 3 replicates; controls 3 of 9).
The variant GRTFDDYAMH | GIWWNSGHIGYADSVK | VGRGGGYFDY showed 4.96 (1 of 3 replicates; controls 2 of 9).
The variant GATFDDYAMH | GISWNSGSIGYAFSVK | VGRGGVYFDY showed no signal (0 of 3 replicates; controls 0 of 9).
The variant GNTFDDYAMH | GISWNSGSIGYADSVK | VGRRGGYFDY showed 3.98 (3 of 3 replicates; controls 3 of 9).
The variant GVTFDDYAMH | GISWNSGSIGYADYVK | VGRGGGYFDL showed no signal (0 of 3 replicates; controls 0 of 9).
The variant GYTFDDYAMH | GISWNSGVIGYADSVK | VGCGGGYFDY showed 4.28 (1 of 3 replicates; controls 3 of 9).
The variant GQTFDVYAMH | GISWNSGSIGYIDSVK | VGRGGGYFDY showed 4.34 (1 of 3 replicates; controls 0 of 9).
The variant GNHFDDYAMH | GISWNSGSIGYADSVK | VGRGGGAFDY showed 0.51 (3 of 3 replicates; controls 0 of 9).
The variant GGTFDDYAMY | GISWNSGSIGYADSVK | VGRGGGYPDY showed 4.57 (1 of 3 replicates; controls 0 of 9).
The variant GATFDDYAMH | GIAWNSGSIGYADSVK | VGKGGGYFDY showed 5.10 (3 of 3 replicates; controls 2 of 9).
The variant SGTFDDYMMH | GISWNSGSIGYADSVK | VGRGGGYFDY showed no signal (0 of 3 replicates; controls 0 of 9).
The variant GITFDDYAMH | GISDNSGSIGYADSVK | VGRGGYYFDY showed 5.04 (3 of 3 replicates; controls 6 of 9).
The variant GCTFDDYAMH | GIQWNSGSIGYADSVK | VGRGGGLFDY showed 4.53 (3 of 3 replicates; controls 5 of 9).
The variant GYTFDDYAMH | GISWNSGYIGYADSVK | VGRGGGYFDY showed 2.26 (3 of 3 replicates; controls 0 of 9).
The variant GLTFDDYAMH | GISWNFGSIHYADSVK | VGRGGGYFDY showed 3.09 (1 of 3 replicates; controls 2 of 9).
The variant GLTFDDYAMH | GIEANSGSIGYADSVK | VGRGGGYFDY showed 3.31 (2 of 3 replicates; controls 1 of 9).
The variant GHTFDDYAMH | GPPWNSGSIGYADSVK | VGRGGGYFDY showed no signal (0 of 3 replicates; controls 0 of 9).
The variant GQTFVDYAMH | GISWNSGSIGYADSVK | VGRGGSYFDY showed no signal (0 of 3 replicates; controls 3 of 9).
The variant GTTFDDYAMH | GISWNSFSIGYYDSVK | VGRGGGYFDY showed no signal (0 of 3 replicates; controls 2 of 9).
The variant GSTFDDYAMH | GISWNSGSIGYADSTK | GGRGGGYFDY showed no signal (0 of 3 replicates; controls 0 of 9).
The variant GNTFDDYAMH | GISWNSGGIGYADSVK | VGRGGKYFDY showed no signal (0 of 3 replicates; controls 2 of 9).
The variant GDTFDDYAMH | GISWNSGGIGYADSVE | VGRGGGYFDY showed no signal (0 of 3 replicates; controls 0 of 9).
The variant GYTFDDYMMH | GISWNSGSIGYADSVK | VGRGGGYFHY showed 5.87 (1 of 3 replicates; controls 2 of 9).
The variant GTTFDDYAMH | GISWNSTSIGYADSVK | VGRGGGYQDY showed no signal (0 of 3 replicates; controls 1 of 9).
The variant GWTFDDYAMH | GISWNSGSIGYALSVK | VGRGGGYFDA showed no signal (0 of 3 replicates; controls 1 of 9).
The variant GPTFDDYAMH | GISWNSGSIGYADSLK | VGRGGGYFDY showed no signal (0 of 3 replicates; controls 1 of 9).
The variant GKCFDDYAMH | GISWNSGSIGYADSVK | VGNGGGYFDY showed no signal (0 of 3 replicates; controls 0 of 9).
The variant HETFDDYAMH | GISDNSGSIGYADSVK | VGRGGGYFDY showed no signal (0 of 3 replicates; controls 0 of 9).
The variant GKTFDDYAMH | GISWNSGSIGCADSVK | VGRIGGYFDY showed 4.29 (1 of 3 replicates; controls 3 of 9).
The variant GMTFDDYAMH | GISWNSGSDPYADSVK | VGRGGGYFDY showed 5.10 (1 of 3 replicates; controls 2 of 9).
The variant GRTFDDYAMH | GISWNSGSIGYADQVK | VMRGGGYFDY showed 4.99 (1 of 3 replicates; controls 1 of 9).
The variant GTTFDDYAMH | PISWNSGSRGYADSVK | VGRGGGYFDY showed no signal (0 of 3 replicates; controls 2 of 9).
The variant GITFDDYAMH | GYSWNSGSITYADSVK | VGRGGGYFDY showed 4.62 (1 of 3 replicates; controls 1 of 9).
The variant DITFDDYAMH | GISWNSGSIGYADSVK | VGRGGGYFDM showed no signal (0 of 3 replicates; controls 0 of 9).
The variant GWTFDQYAMH | GISWNSGSIKYADSVK | VGRGGGYFDY showed 3.87 (2 of 3 replicates; controls 0 of 9).
The variant GPTFDDGAMH | GISWNSGSIGYADSVK | VGRGGGYFDY showed 5.16 (1 of 3 replicates; controls 0 of 9).
The variant GMTFDDYAMH | GISFNSGSIGYTDSVK | VGRGGGYFDY showed 1.21 (3 of 3 replicates; controls 0 of 9).
The variant GVTFDDYHMH | GISWNSGSIGCADSVK | VGRGGGYFDY showed no signal (0 of 3 replicates; controls 1 of 9).
The variant GHTFDDYAMH | GISWNSGSQGYADSVK | VGRGGGYFMY showed 5.28 (2 of 3 replicates; controls 5 of 9).
The variant GETFDDYAMH | GISYNSGSIGYADSVK | VGRGYGYFDY showed 4.25 (2 of 3 replicates; controls 2 of 9).
The variant GATFDDYAMH | GISWNSGSIGYADSVK | VGRGGGYFDY showed 4.77 (3 of 3 replicates; controls 7 of 9).
The variant GYTDDDYGMH | GISWNSGSIGYADSVK | VGRGGGYFDY showed 4.98 (3 of 3 replicates; controls 7 of 9).

From the list, the first 7 with no signal in any replicate:

| CDR-H1 | CDR-H2 | CDR-H3 | log10 Kd (nM), mean | seen in | signal with controls |
|---|---|---|---|---|---|
| GGTFDDYAMH | GISWNSGSIGYADSPK | VGRGGWYFDY | no signal | 0 of 3 | 1 of 9 |
| GATFDDYAMH | GISWNSGSIGYAFSVK | VGRGGVYFDY | no signal | 0 of 3 | 0 of 9 |
| GVTFDDYAMH | GISWNSGSIGYADYVK | VGRGGGYFDL | no signal | 0 of 3 | 0 of 9 |
| SGTFDDYMMH | GISWNSGSIGYADSVK | VGRGGGYFDY | no signal | 0 of 3 | 0 of 9 |
| GHTFDDYAMH | GPPWNSGSIGYADSVK | VGRGGGYFDY | no signal | 0 of 3 | 0 of 9 |
| GQTFVDYAMH | GISWNSGSIGYADSVK | VGRGGSYFDY | no signal | 0 of 3 | 3 of 9 |
| GTTFDDYAMH | GISWNSFSIGYYDSVK | VGRGGGYFDY | no signal | 0 of 3 | 2 of 9 |

Parent in this assay: reference entry 1.86, copy in this library 0.88.

Reference: Engelhart et al. 2022, doi:10.1038/s41597-022-01779-4. File: FLAb, binding data.